Assay results from PubChem BioAssay AID2099 (Broad Institute, 2009).
The entries are a selection whose mix differs from that of the whole data set. Some structures show a salt or complex split into parts, the way the source records it. Activity calls are given as the source filed them.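 The calls were made as follows: active = more than half of a compound's replicate wells show inhibition beyond 50%, single wells judged on their own value; inconclusive = some, but no more than half, of replicates pass 50% inhibition; inactive = no replicate passes 50% inhibition.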

Amino acid sequences for entries named in this document (tags omitted). Residues count along the entry.
UniProt Q9H3R0, 1-420 limits assumed: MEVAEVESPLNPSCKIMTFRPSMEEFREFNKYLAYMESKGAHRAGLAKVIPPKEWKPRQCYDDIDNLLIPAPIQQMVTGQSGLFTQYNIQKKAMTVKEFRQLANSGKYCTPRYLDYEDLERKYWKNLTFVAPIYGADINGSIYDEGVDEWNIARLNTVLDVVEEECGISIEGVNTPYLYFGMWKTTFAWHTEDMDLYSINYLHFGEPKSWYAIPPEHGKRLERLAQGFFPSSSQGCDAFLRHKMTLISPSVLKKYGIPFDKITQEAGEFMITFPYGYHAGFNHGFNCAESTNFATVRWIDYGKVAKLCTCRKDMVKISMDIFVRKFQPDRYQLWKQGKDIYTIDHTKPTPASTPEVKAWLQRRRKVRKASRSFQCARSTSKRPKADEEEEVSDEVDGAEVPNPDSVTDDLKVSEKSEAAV

target: Lysine-specific demethylase 4C (Homo sapiens) (UniProt Q9H3R0); assay: inhibitors of GASC-1 histone demethylase, primary screen, biochemical, fluorescence, DELFIA europium (AID 2099); conditions: GST-JMJD2C(1-420) H3K9me3 demethylation, at 2.35 µM, active compounds read high;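 also: signal counts dimethyl H3K9 product captured on neutravidin plate; 0% = median of DMSO wells and 100% = 0.3 times that DMSO median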

Row | Structure (SMILES) | inhibition
1 | CCCOc1ccc(NP(C)(=O)Oc2ccc(Cl)cc2)cc1 (stereo not given) | inactive: -12%
2 | COc1ccccc1OP(C)(=O)Nc1c(C)cccc1C (stereo not given) | inactive: -5.16%
3 | CN1CCCCC1COC(=O)C1(O)c2ccccc2CCc2ccccc21 (stereo not given) | inactive: -1.24%
4 | O=[N+]([O-])c1cc([N+](=O)[O-])c(-n2nnc3ccccc32)c([N+](=O)[O-])c1 | inactive: -4.89%
5 | CCOC(=O)c1ccc(NP(C)(=O)Oc2cc(C)cc(C)c2)cc1 (stereo not given) | inactive: 3.04%
6 | Cc1cc(C)cc(OP(C)(=O)Nc2ccc(C)cc2C)c1 (stereo not given) | inactive: 11%
7 | COc1ccccc1OP(C)(=O)Nc1cccc(Br)c1 (stereo not given) | inactive: -4.55%
8 | Cc1ccc(C)c(NP(C)(=O)Oc2ccccc2)c1 (stereo not given) | inactive: -8.18%
9 | CP(=O)(Nc1cccc(Br)c1)Oc1ccccc1 (stereo not given) | inactive: -2.52%
10 | Cc1cc(C)cc(OP(C)(=O)Nc2ccccn2)c1 (stereo not given) | inactive: 1.63%
11 | O=C(O)c1cccc(Nc2c([N+](=O)[O-])cc([N+](=O)[O-])cc2[N+](=O)[O-])c1 | inactive: 5.39%
12 | CC1=NCCc2c1[nH]c1ccccc21.O=[N+]([O-])c1cc([N+](=O)[O-])c(O)c([N+](=O)[O-])c1 | inactive: 2.44%
13 | CCOC(=O)c1ccc(NP(C)(=O)Oc2ccc(F)cc2)cc1 (stereo not given) | inactive: -3.66%
14 | COc1ccc(OP(C)(=O)Nc2ccc(SC(F)(F)F)cc2)cc1 (stereo not given) | inactive: 24.1%
15 | CP(=O)(Nc1ccccc1)Oc1ccc(F)cc1 (stereo not given) | inactive: 10.9%
16 | CCCCCOc1ccc(NP(C)(=O)Oc2ccc(Cl)cc2Cl)cc1 (stereo not given) | inactive: 7.73%
17 | O=[N+]([O-])c1cc([N+](=O)[O-])c(OC2CCCCC2O)c([N+](=O)[O-])c1 (stereo not given) | inactive: 0.683%
18 | CCN(CC)CCCOC(=O)C(O)(c1ccccc1)C1CCCCC1 (stereo not given) | inactive: -6.84%
19 | CP(=O)(Nc1ccccc1F)Oc1ccccc1 (stereo not given) | inactive: -1.25%
20 | CC(C)c1ccc(OP(C)(=O)Nc2ccc(SC(F)(F)F)cc2)cc1 (stereo not given) | inactive: 28.6%

Row | Structure (SMILES) | inhibition
21 | COc1ccc2c(c1O)-c1c(O)c(OC)cc3c1[C@H](C2)[N+](C)(C)CC3.O=[N+]([O-])c1cc([N+](=O)[O-])c([O-])c([N+](=O)[O-])c1[O-] | inactive: -2.34%
22 | O=C(OC1CN2CCC1CC2)c1ccc([N+](=O)[O-])cc1 (stereo not given) | inactive: -5.58%
23 | O=C(OCCN1CCN(CCOCc2ccccc2)CC1)C(O)(c1ccccc1)c1ccccc1 | inactive: -2.58%
24 | CCOP(C)(=S)SCC(=O)NC(C)(CC)C(=O)O (stereo not given) | inactive: -2.33%
25 | CP(=O)(Nc1ccc(SC(F)(F)F)cc1)Oc1ccc(F)cc1 (stereo not given) | inactive: -3.93%
26 | Cc1ccccc1NP(C)(=O)Nc1ccccc1C | inactive: -4.81%
27 | CP(=O)(Nc1ccc2c(c1)OCCO2)Oc1ccccc1 (stereo not given) | inactive: -4.94%
28 | CN(C)CCOC(=O)C(O)(c1ccccc1)C1CCCCC1 (stereo not given) | inactive: -0.714%
29 | COc1ccc(NP(C)(=O)Oc2ccccc2OC)cc1 (stereo not given) | inactive: -6.68%
30 | COc1ccc(OP(C)(=O)Nc2cccc(Br)c2)cc1 (stereo not given) | inactive: 6.18%
31 | O=[N+]([O-])c1ccc(OP2(=O)COCCO2)cc1 (stereo not given) | inactive: -0.286%
32 | Cc1cc(-c2cccc3ccccc23)c(C)cn1.O=[N+]([O-])c1cc([N+](=O)[O-])c(O)c([N+](=O)[O-])c1 | inactive: -6.76%
33 | O=[N+]([O-])c1cc([N+](=O)[O-])c(NCC2CCS(=O)(=O)C2)c([N+](=O)[O-])c1 (stereo not given) | inactive: 4.69%
34 | CCOC(=O)c1ccc(NP(C)(=O)Oc2ccc(Cl)cc2)cc1 (stereo not given) | inactive: 2.79%
35 | CP(=O)(OC12CC3CC(CC(C3)C1)C2)OC12CC3CC(CC(C3)C1)C2 | inactive: -5.19%
36 | Nc1ccc2c(ccc3cccnc32)n1.O=[N+]([O-])c1cc([N+](=O)[O-])c(O)c([N+](=O)[O-])c1 | inactive: -0.521%
37 | O=C(OCCCN1CCCC1)C(O)(c1ccccc1)C1CCCCC1 (stereo not given) | inactive: 23.4%
38 | COc1ccccc1OP(C)(=O)Nc1c(C)n(C)n(-c2ccccc2)c1=O (stereo not given) | inactive: -18.7%
39 | CCc1ccc(OP(C)(=O)Nc2cccnc2)cc1 (stereo not given) | inactive: -1.8%
40 | CP(=O)(Oc1ccccc1)N1CCOC1=O (stereo not given) | inactive: 0.337%

Row | Structure (SMILES) | inhibition
41 | COc1ccc(OP(C)(=O)Nc2ccc(Br)cc2)cc1 (stereo not given) | inactive: -2.21%
42 | CCN(CC)CC(O)COC(=O)C(O)(c1ccccc1)C1CCCCC1 (stereo not given) | inactive: 0.693%
43 | CN(C)C(=O)c1c([N+](=O)[O-])cc([N+](=O)[O-])cc1[N+](=O)[O-] | inactive: -3.67%
44 | CC(C)(C)c1ccc(OP(C)(=O)O)cc1 | inactive: 1.72%
45 | COc1ccccc1OP(C)(=O)Nc1ccccc1Br (stereo not given) | inactive: -0.708%
46 | CP(=O)(Nc1ccc(Cl)cc1)Oc1ccc(F)cc1 (stereo not given) | inactive: -2.61%
47 | COc1ccc(OP(C)(=O)Nc2ccccn2)cc1 (stereo not given) | inactive: 1.28%
48 | CN(C)CCOC(=O)C(O)(c1ccccc1)C1CCCC1 (stereo not given) | inactive: -3.77%
49 | COc1ccccc1OP(C)(=O)Nc1ccc(Br)cc1 (stereo not given) | inactive: -17.9%
50 | COc1ccccc1OP(C)(=O)Nc1ccc(C)cc1C (stereo not given) | inactive: -1.71%
51 | CP(=O)(Nc1ccccn1)Oc1ccccc1 (stereo not given) | inactive: 2.81%
52 | CCc1ccc(OP(C)(=O)O)cc1 | inactive: -10.3%
53 | O=[N+]([O-])c1cc([N+](=O)[O-])c(Nc2ccccn2)c([N+](=O)[O-])c1 | inactive: -0.518%
54 | Cc1c(NP(C)(=O)Oc2ccc(C(C)C)cc2)c(=O)n(-c2ccccc2)n1C (stereo not given) | inactive: 3.82%
55 | COc1ccccc1OP(C)(=O)Nc1ccc(C)c(C)c1 (stereo not given) | inactive: 6.55%
56 | COc1ccc(OP(C)(=O)Nc2ccccc2Br)cc1 (stereo not given) | inactive: -1.74%
57 | Cc1cc(C)cc(OP(C)(=O)Nc2cccc(C(F)(F)F)c2)c1 (stereo not given) | inactive: 4.59%
58 | CP(=O)(OCCOc1ccccc1)OCCOc1ccccc1 | inactive: 6.06%
59 | CP(=O)(Nc1ccc(Cl)cc1Cl)Oc1ccccc1 (stereo not given) | inactive: 2.99%
60 | Cc1nc2ccc3ccccc3c2o1.O=[N+]([O-])c1cc([N+](=O)[O-])c(O)c([N+](=O)[O-])c1 | inactive: -0.418%
